The nature of this data set: Kinetic solubility, 96-well plate assay. It counts as physicochemical. Conditions: phosphate buffer, pH 7.4.

In brackets after ≈: the same amount, converted by molar mass.

For orientation: solubility means the dissolved amount per volume that the medium holds. Lower therefore signals little dissolved substance. Turning to `CC(C)[C@@H](CN1CC[C@@](C)(c2cccc(F)c2)[C@@H](C)C1)NC(=O)[C@H]1Cc2ccc(O)cc2CN1` [Compound 5, (3R)-N-[(1S)-1-{[(3R,4R)-4-(3-Fluorophenyl)-3,4-dimethylpiperidin-1-yl]methyl}-2-methylpropyl]-7-hydroxy-1,2,3,4-tetrahydroisoquinoline-3-carboxamide], the concentration in solution (solubility at 90 min) was 10 µM (≈ 4.68 µg/mL).

The values are drawn from publication PMC4161151 (Journal of Medicinal Chemistry, 2014).
